The source of these data is US20060079453A1, “Hla binding peptides and their uses” (priority 2002, published 2006).

Read-outs that look alike come from different tables or passages of the source.

Targets include HLA-B*4501 (Homo sapiens, UniProt P01889, A329T/A65T/A93T/A95T/C349S/D138N/D201E/D98Y/E176V/E187L/E204Q/E69K/H137Y/K202T/L119W/N87E/Q56L/Q94N/R155S/R180D/S121R/S35A/S48T/V127L/V306I/V36M/W191S/Y140L/Y33H/Y91S); HLA-B*4001 (Homo sapiens, UniProt P01889, A65T/A93T/A95T/D138N/D98Y/E176V/E69K/N87E/Q56L/Q94N/R180L/S121R/S35A/S48T/T167S/V36M/W171L/Y33H/Y91S); HLA-B*4402 (Homo sapiens, UniProt P01889, A223V/A65T/A93T/A95T/D201E/D98Y/E176V/E187L/E204Q/E69K/G107R/H137Y/K202T/L105A/L119I/N104T/N87E/Q56L/Q94N/R106L/R155S/R180D/S101N/S121R/S35A/S48T/T118I/V36M/W191S/Y140D/Y91S).

Holding throughout (assay): biochemical
Common to all, as to assay type: binding

A further assay concerns the target HLA-B*4002 (Homo sapiens, UniProt P01889, A65T/A93T/A95T/D138N/D201E/D98Y/E176V/E204Q/E69K/K202T/N87E/Q56L/Q94N/R180L/S48T/Y33H/Y91S). Conditions: B*4002.

Compound `CC(C)C[C@H](NC(=O)[C@H](CC(N)=O)NC(=O)[C@H](CCC(=O)O)NC(=O)[C@H](C)N)C(=O)N[C@@H](Cc1c[nH]c2ccccc12)C(=O)N[C@@H](CC(N)=O)C(=O)N[C@H](C(=O)N[C@H](C(=O)N[C@@H](Cc1ccc(O)cc1)C(=O)O)C(C)C)[C@@H](C)O` displayed an IC50 against HLA-B*4501 of 0.257 µM. The same measure, in the same setting: in the case of `CC(C)C[C@H](NC(=O)[C@H](CC(N)=O)NC(=O)[C@H](CCC(=O)O)NC(=O)[C@H](C)N)C(=O)N[C@@H](Cc1c[nH]c2ccccc12)C(=O)N[C@H](C(=O)N[C@@H](Cc1ccccc1)C(=O)N[C@H](C(=O)N[C@@H](Cc1ccc(O)cc1)C(=O)O)C(C)C)C(C)C` it was 0.237 µM. The same measure, in the same setting: in the case of `CC(C)C[C@H](NC(=O)[C@H](CC(N)=O)NC(=O)[C@H](CCC(=O)O)NC(=O)[C@H](C)N)C(=O)N[C@@H](Cc1c[nH]c2ccccc12)C(=O)N[C@H](C(=O)N[C@H](C(=O)N[C@@H](Cc1ccccc1)C(=O)N[C@@H](Cc1ccc(O)cc1)C(=O)O)[C@@H](C)O)C(C)C` it was 0.347 µM. The same measure, in the same setting: with `CC(C)C[C@H](NC(=O)[C@@H](NC(=O)[C@H](CCC(=O)O)NC(=O)[C@H](C)N)C(C)C)C(=O)N[C@@H](Cc1c[nH]c2ccccc12)C(=O)N[C@H](C(=O)N[C@H](C(=O)N[C@H](C(=O)N[C@@H](Cc1ccc(O)cc1)C(=O)O)C(C)C)[C@@H](C)O)C(C)C` the figure was 1.24 µM. `CC(C)C[C@H](NC(=O)[C@H](Cc1ccc(O)cc1)NC(=O)[C@@H](NC(=O)[C@H](C)NC(=O)[C@H](CC(=O)O)NC(=O)[C@H](CCC(N)=O)NC(=O)[C@@H](NC(=O)[C@H](CCC(=O)O)NC(=O)[C@@H]1CCCN1C(=O)[C@H](CCC(=O)O)NC(=O)[C@@H](N)CS)[C@@H](C)O)[C@@H](C)O)C(=O)O`: the IC50 at HLA-B*4501 (B*4501) was found to be 62.1 µM. `C[C@H](NC(=O)[C@H](Cc1c[nH]cn1)NC(=O)[C@H](Cc1ccc(O)cc1)NC(=O)[C@H](CCC(=O)O)NC(=O)[C@@H](NC(=O)[C@H](CCC(=O)O)NC(=O)[C@@H](N)CC(=O)O)[C@@H](C)O)C(=O)N[C@@H](CC(=O)O)C(=O)NCC(=O)NCC(=O)O`: the IC50 against HLA-B*4001 (B*4001) stood at 45.3 µM; against HLA-B*4501 (B*4501), 29 µM. Turning to `CC[C@H](C)[C@H](NC(=O)[C@H](CO)NC(=O)[C@H](CC(=O)O)NC(=O)[C@H](CCC(=O)O)NC(=O)[C@H](CCCNC(=N)N)NC(=O)CNC(=O)[C@H](CCC(=O)O)NC(=O)[C@@H](N)Cc1ccccc1)C(=O)N[C@@H](CC(C)C)C(=O)O`, the IC50 was 0.051 µM against HLA-B*4001 (B*4001) and greater than 27.1 µM against HLA-B*4501 (B*4501). In the same order, the values of `CC[C@H](C)[C@H](NC(=O)[C@H](CO)NC(=O)[C@H](CC(=O)O)NC(=O)[C@H](CCC(=O)O)NC(=O)[C@H](CCCNC(=N)N)NC(=O)CNC(=O)[C@H](CCC(=O)O)NC(=O)[C@@H](N)Cc1ccccc1)C(=O)N[C@@H](CC(C)C)C(=O)NCC(=O)O` are 0.94 µM and 20.3 µM.

Take `CC[C@H](C)[C@H](NC(=O)[C@@H](NC(=O)[C@H](CCC(N)=O)NC(=O)[C@H](CCCNC(=N)N)NC(=O)[C@H](CC(N)=O)NC(=O)CNC(=O)[C@H](CC(=O)O)NC(=O)[C@@H](NC(=O)[C@H](CCCNC(=N)N)NC(=O)[C@H](CCC(=O)O)NC(=O)CN)C(C)C)[C@@H](C)CC)C(=O)O`: the IC50 at HLA-B*4501 (B*4501) was determined as 27.1 µM. The compound `CC(C)C[C@H](NC(=O)CNC(=O)[C@H](CC(C)C)NC(=O)[C@H](C)NC(=O)[C@H](CCC(=O)O)NC(=O)CNC(=O)[C@H](CCCNC(=N)N)NC(=O)[C@H](C)NC(=O)[C@H](CCC(=O)O)NC(=O)[C@@H](N)CC(C)C)C(=O)O` returned an IC50 against HLA-B*4501 (B*4501) of 0.964 µM. Consider `CC(C)C[C@H](NC(=O)[C@H](CC(C)C)NC(=O)[C@H](CC(N)=O)NC(=O)CNC(=O)[C@H](CO)NC(=O)[C@H](CO)NC(=O)[C@H](CC(=O)O)NC(=O)[C@H](CCC(=O)O)NC(=O)[C@@H](N)CC(C)C)C(=O)O`, for which the values for the IC50 against HLA-B*4402 (B*4402) and at HLA-B*4501 (B*4501) were 4.66 µM and 26.1 µM, respectively. In the same order, the values of `CC[C@H](C)[C@H](NC(=O)[C@H](CCC(=O)O)NC(=O)[C@H](CCC(=O)O)NC(=O)[C@@H](N)CC(C)C)C(=O)N[C@H](C(=O)NCC(=O)N[C@@H](Cc1ccc(O)cc1)C(=O)N[C@@H](CC(C)C)C(=O)O)[C@@H](C)O` are 5.91 µM and 35.5 µM.

Consider `CC[C@H](C)[C@H](NC(=O)[C@H](CO)NC(=O)[C@H](CC(=O)O)NC(=O)[C@H](CCC(=O)O)NC(=O)[C@H](CCCNC(=N)N)NC(=O)CNC(=O)[C@H](CCC(=O)O)NC(=O)[C@H](Cc1ccccc1)NC(=O)[C@@H](NC(=O)[C@H](CCC(=O)O)NC(=O)[C@@H](N)CC(C)C)C(C)C)C(=O)O`, for which the IC50 against HLA-B*4402 (B*4402) was 21 µM; at HLA-B*4501 (B*4501), greater than 31 µM.

At HLA-B*4501 (B*4501), `CC(C)C[C@H](NC(=O)[C@@H]1CCCN1C(=O)[C@H](CO)NC(=O)[C@H](CC(C)C)NC(=O)[C@@H](NC(=O)[C@H](CC(N)=O)NC(=O)[C@H](CC(N)=O)NC(=O)[C@H](CCC(=O)O)NC(=O)[C@@H]1CCCN1)C(C)C)C(=O)O` had an IC50 greater than 27.1 µM. For the compound `CSCC[C@H](NC(=O)[C@H](CC(=O)O)NC(=O)[C@H](CC(C)C)NC(=O)[C@H](Cc1c[nH]cn1)NC(=O)[C@@H](NC(=O)[C@H](CCC(=O)O)NC(=O)[C@@H]1CCCN1)[C@@H](C)O)C(=O)N[C@@H](CC(C)C)C(=O)O`, the IC50 on HLA-B*4402 (B*4402) was greater than 17.5 µM; against HLA-B*4501 (B*4501) it was 20.3 µM.

`CC[C@H](C)[C@H](NC(=O)[C@H](CC(C)C)NC(=O)[C@H](C)NC(=O)[C@H](CC(C)C)NC(=O)CNC(=O)[C@H](CO)NC(=O)CNC(=O)[C@H](CC(C)C)NC(=O)[C@H](CCC(=O)O)NC(=O)[C@@H](N)CCCNC(=N)N)C(=O)O` showed an IC50 against HLA-B*4501 (B*4501) of 0.173 µM. In the case of `CC(C)[C@H](N)C(=O)N[C@@H](CCC(=O)O)C(=O)N[C@@H](CC(=O)O)C(=O)N[C@@H](CCCCN)C(=O)N[C@@H](CC(=O)O)C(=O)N[C@@H](C)C(=O)N[C@H](C(=O)N[C@@H](C)C(=O)N[C@@H](Cc1ccccc1)C(=O)O)C(C)C`, the IC50 against HLA-B*4402 (B*4402) worked out at 1.66 µM; at HLA-B*4501 (B*4501), 21.2 µM. In the same order, the values of `CC(C)C[C@H](NC(=O)[C@@H](NC(=O)[C@H](CCCNC(=N)N)NC(=O)[C@H](CS)NC(=O)[C@H](CCC(=O)O)NC(=O)[C@H](CCC(=O)O)NC(=O)[C@@H](N)C(C)C)C(C)C)C(=O)N[C@@H](CCC(N)=O)C(=O)NCC(=O)O` are 14.2 µM and 20.1 µM. For `CC(C)C[C@H](NC(=O)[C@H](CC(N)=O)NC(=O)CNC(=O)[C@H](CCC(=O)O)NC(=O)[C@@H](N)C(C)C)C(=O)N[C@@H](CCCNC(=N)N)C(=O)N[C@H](C(=O)N[C@@H](CCC(=O)O)C(=O)N[C@@H](Cc1ccc(O)cc1)C(=O)O)C(C)C`, the IC50 at HLA-B*4002 worked out at 67.7 µM; against HLA-B*4501 (B*4501), 39.1 µM. For the compound `CSCC[C@H](NC(=O)[C@H](C)NC(=O)CNC(=O)[C@H](CO)NC(=O)[C@@H]1CCCN1C(=O)[C@@H](NC(=O)[C@H](CC(C)C)NC(=O)[C@@H]1CCCN1C(=O)[C@H](CCC(=O)O)NC(=O)[C@@H](N)C(C)C)[C@@H](C)O)C(=O)O`, on HLA-B*4501 (B*4501), the IC50 was 20.2 µM. For the compound `CC(C)C[C@H](NC(=O)[C@@H]1CCCN1C(=O)[C@@H]1CCCN1C(=O)[C@H](CCC(=O)O)NC(=O)[C@@H](N)C(C)C)C(=O)N[C@@H](CO)C(=O)N[C@@H](CCC(N)=O)C(=O)N[C@@H](CCC(=O)O)C(=O)N[C@H](C(=O)O)[C@@H](C)O`, the IC50 turned out to be 20.5 µM at HLA-B*4002 and 29.3 µM against HLA-B*4501 (B*4501). As for `CC[C@H](C)[C@H](NC(=O)[C@H](Cc1c[nH]cn1)NC(=O)[C@@H]1CCCN1C(=O)[C@H](CCC(=O)O)NC(=O)CN)C(=O)N[C@@H](CO)C(=O)N[C@@H](Cc1ccc(O)cc1)C(=O)O` [GEPHISY], the IC50 was 36.1 µM on HLA-B*4402 (B*4402) and greater than 33.3 µM at HLA-B*4501 (B*4501). Take `CC(C)C[C@H](NC(=O)[C@H](C)NC(=O)[C@H](CCC(=O)O)NC(=O)CNC(=O)[C@H](CCCNC(=N)N)NC(=O)[C@H](C)NC(=O)[C@H](CCC(=O)O)NC(=O)[C@@H](N)CC(C)C)C(=O)O` [LEARGEAL]: the IC50 against HLA-B*4002 turned out to be 0.065 µM; on HLA-B*4402 (B*4402), 29.5 µM; against HLA-B*4501 (B*4501) it was 31.5 µM. Take `CC(C)[C@H](NC(=O)[C@H](C)NC(=O)[C@H](CCCNC(=N)N)NC(=O)[C@@H](NC(=O)[C@H](CCC(=O)O)NC(=O)[C@@H](N)CCCNC(=N)N)C(C)C)C(=O)N[C@H](C(=O)O)[C@@H](C)O` [REVRAVT]: the values for the IC50 against HLA-B*4402 (B*4402) and against HLA-B*4501 (B*4501) were 31.6 µM and 23.5 µM, respectively.

With `CC(C)C[C@H](NC(=O)[C@@H]1CCCN1C(=O)[C@H](CCC(=O)O)NC(=O)[C@@H](NC(=O)[C@H](CC(C)C)NC(=O)[C@H](CCC(=O)O)NC(=O)[C@@H](N)[C@@H](C)O)C(C)C)C(=O)O` [TELVEPL], the IC50 against HLA-B*4501 (B*4501) is greater than 148 µM. Take `CC(C)C[C@H](NC(=O)[C@H](C)NC(=O)[C@@H](NC(=O)[C@H](C)NC(=O)[C@H](CC(=O)O)NC(=O)[C@H](CCC(=O)O)NC(=O)[C@H](CC(=O)O)NC(=O)[C@H](CCC(=O)O)NC(=O)[C@@H](N)C(C)C)C(C)C)C(=O)O` [VEDEDAVAL]: the IC50 at HLA-B*4402 (B*4402) is 30.7 µM; at HLA-B*4501 (B*4501), 27.8 µM.

Take CEKCSKPCARVCY: the IC50 on HLA-B*4501 (read-out: B*4501) came to 1.31 µM. On the same count and under the same terms, in the case of CELHCPAL it was 30.1 µM. As for GELHCPALVT, the IC50 is greater than 9.25 µM on HLA-B*4001 (read-out: B*4001) and 0.477 µM on HLA-B*4501 (read-out: B*4501).

Regarding RERFEME, the IC50 on HLA-B*4402 (read-out: B*4402) came out at 25.5 µM; on HLA-B*4501 (read-out: B*4501), 20 µM.
